# Measurements: patent US6010681A, “Biodegradable blood-pool contrast agents” (Nycomed Salutar, Inc., priority 1994, dated 2000)
# Tests used:
# [1] = concentrations greater than 0.15 mg/mL in water
# [2] = mouse
# [3] = i.v. 0.05 mmol/kg, 3 minutes, ± S.D.
# [4] = i.v. 0.05 mmol/kg, 15 minutes, approximately
substance,measurement,setting,value
"mono-sulfonate, monoamino-PEGylated silicon phthalocyanine [La Jolla Blue II]",passage through 0.2 μm filter,[1],did pass through 0.2 μm filter
same,passage through membrane filter of MWCO 30 KD,[1],did not pass through a membrane filter of MWCO 30 KD
same,biodistribution and excretion pattern,[2]; i.v. 0.05 mmol/kg,more consistent with that of a blood pool agent than an extracellular fluid agent
same,"Liver level, change over study","[2]; i.v. 0.05 mmol/kg, 3 minutes to 7 days",did not change significantly during the 7 days
same,Blood level (of the administered dose),[2]; [3],15.71%±2.43
same,Kidney level (of the administered dose),[2]; [3],1.37%±0.11
same,Liver level (of the administered dose),[2]; [3],2.41%±0.82
same,Kidney level (of the administered dose),[2]; [4],≤ 1%
same,Lung level (of the administered dose),[2]; [4],≤ 1%
same,Lung level (of the administered dose),"[2]; i.v. 0.05 mmol/kg, 60 minutes, ± S.D.",1.09%±0.20
same,Cumulative recovery in the urine,"[2]; i.v. 0.05 mmol/kg, 2 hours, n=8",45.52%±4.92
same,Blood level (of the administered dose),"[2]; i.v. 0.05 mmol/kg, 4 hours, ± S.D.",12.64%±3.39
same,Cumulative recovery in the urine,"[2]; i.v. 0.05 mmol/kg, 24 hours, n=6",approximately 76%
same,Blood level (of the administered dose),"[2]; i.v. 0.05 mmol/kg, 24 hours, ± S.D.",2.79%±0.14
same,Blood level (of the administered dose),"[2]; i.v. 0.05 mmol/kg, 7 days, ± S.D.",0.05%±0.00
same,Accounted for in feces,"[2]; i.v. 0.05 mmol/kg, after 7 days",less than 1%
same,Recovered in urine,"[2]; i.v. 0.05 mmol/kg, after 7 days, n=3",78.01%±10.10
same,in vivo metabolism of the ring structure,[2]; inferred from fluorescence detectable for up to 7 days,no significant in vivo metabolism of the ring structure

# Where two headings read alike, the source gives them in different places.
